Laboratory results reported in patent US11737991B2, “Eutectic formulations of cyclobenzaprine hydrochloride and amitriptyline hydrochloride” (TONIX PHARMA HOLDINGS LIMITED, priority 2013, dated 2023).

Assay: DSC, FT-IR/ATR and XRPD compatibility of excipients with Cyclobenzaprine HCl, mixed (A) and milled (B) 1:1 mixtures (Example 2)
Assay type: physicochemical
Description: As described above, thermal analytical techniques were further used to assess the compatibility of a drug product (tablet) containing Cyclobenzaprine HCl (API). The compatibility assessment was carried out between the API and additional excipients in a 1:1 ratio. The 1:1 APT-excipient mixtures were formed in two different ways: first, by mixing only, and second, by strong milling in an agate mortar. The thermal behavior recorded in the two different mixtures were compared with those of the single components. On the basis of thermal events recorded for each component and for the mixtures, the analyses were carried out by investigating the meanings of the peaks recorded by differential scanning calorimetry (DSC) in mixtures between the API and the excipients. Furthermore, in order to define the nature of the interaction, the Fourier Transform Infra Red Spectroscopy with Total Attenuated Reflectance (FT-IR/ATR) and X-ray powder diffraction (XRPD) of some samples (API, excipient, and mixed and milled mixtures) was carried out and compared.
Aliquots of API and each excipient were weighed in a ratio of 1:1 and ground in an agate mortar. Then, the homogeneous mixtures were analyzed. These sample mixtures were labeled “B”, while the mechanical-only mixtures were labeled “A.”
The DSC heating curves were obtained by TA 821 DSC Mettler instrument under the following conditions: […]

Disodium Glycine Carbonate [Di Sodium Glycine carbonate]
Nature of interaction by FT-IR/ATR (1:1 mixture, room temperature, no thermal treatment): no chemical acid-basis reaction occurred
Type of interaction between excipient and API (summary) (1:1 mixtures, mixed and milled): only physical
